The values below come from US9828338B2, “Carbamate derivatives of lactam based N-acylethanolamine acid amidase (NAAA) inhibitors” (The Regents of the University of California, priority 2013, dated 2017).

SMILES strings stand for the structures.

The assay addresses T1, r-NAAA (Rattus norvegicus, UniProt Q5KTC7).
T1 construct: Lysosomal NAAA protein preparation was obtained by homogenizing male Sprague-Dawley rat lungs; tissue Charles River (animals); host or cells: male Sprague-Dawley rat lung, soluble lysosomal fraction
T1 sequence (Q5KTC7 34-362): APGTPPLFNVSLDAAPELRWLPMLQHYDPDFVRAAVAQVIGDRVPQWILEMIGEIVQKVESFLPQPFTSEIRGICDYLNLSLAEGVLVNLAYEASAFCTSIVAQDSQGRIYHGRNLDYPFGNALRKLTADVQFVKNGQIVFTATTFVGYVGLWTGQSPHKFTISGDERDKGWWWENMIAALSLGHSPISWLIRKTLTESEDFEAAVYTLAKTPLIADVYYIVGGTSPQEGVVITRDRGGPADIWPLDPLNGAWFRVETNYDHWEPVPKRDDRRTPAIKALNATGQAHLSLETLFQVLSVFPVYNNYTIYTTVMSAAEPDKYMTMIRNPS
The experiment in a line: UPLC/MS r-NAAA assay. Format: biochemical.

A word on the IC50: it is the concentration that inhibits the measured activity by half. A higher IC50 goes with a need for much substance.

In turn, `O=C(N[C@H]1CNC1=O)OCCCCC1CCCCC1` [Example 5, 4-Cyclohexylbutyl-N-[(3S)-2-oxoazetidin-3-yl]-carbamate] showed an IC50 of 0.027 µM.

As to `O=C(N[C@@H]1CNC1=O)OCCCCC1CCCCC1` [Example 6, 4-cyclohexylbutyl-N-[(3R)-2-oxoazetidin-3-yl]-carbamate], the IC50 stood at 8.4 µM.
